Patent US9650440B2, “Monoclonal antibodies that specifically block biological activity of a tumor antigen” (Morphotek, Inc., priority 2004, dated 2017)

Protein sequences, listed by entry. Tags and fused reporters are not part of them. Residues count along the entry.
UniProt P15328, 25-234: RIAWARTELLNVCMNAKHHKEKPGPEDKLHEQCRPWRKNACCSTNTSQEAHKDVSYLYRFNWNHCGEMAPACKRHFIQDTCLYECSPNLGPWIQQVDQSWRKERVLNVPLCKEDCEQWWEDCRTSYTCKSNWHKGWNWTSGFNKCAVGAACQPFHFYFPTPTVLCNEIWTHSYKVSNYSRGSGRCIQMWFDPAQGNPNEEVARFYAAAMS

Molecular target: FR-α (Homo sapiens, UniProt P15328)
Assay: Immunohistochemistry, tissue cross-reactivity on human tissues
Assay type: binding
Set-up: Human tissue samples were obtained at autopsy or biopsy; from tissue; host or cells: human normal and tumour tissues, acetone/formalin-fixed cryosections; key to Expression by IHC: +/− indicates level of expression as detected by immunohistochemistry; +++: +/− indicates level of expression as detected by immunohistochemistry; ++++: +/− indicates level of expression as detected by immunohistochemistry; +++++: +/− indicates level of expression as detected by immunohistochemistry
Text: Tissue preparation. Human tissue samples were obtained at autopsy or biopsy. Tissues tested included adrenal, blood cells (granulocytes, lymphocytes, monocytes, platelets), blood vessels (endothelium), bone marrow, brain (cerebrum (cortex), cerebellum), breast (mammary gland), eye, gastrointestinal tract (colon (large intestine), esophagus, small intestine, stomach), heart, kidney (glomerulus, tubule), liver, lung, lymph node, ovary and fallopian tube (oviduct), pancreas, parathyroid, peripheral nerve, pituitary, placenta, prostate, salivary gland, skin, spinal cord, spleen, striated (skeletal) muscle, testis, thymus, thyroid, tonsil, ureter, urinary bladder, uterus (body (endometrium), cervix), ovarian carcinoma (carcinoma cells), ovarian carcinoma (stromal fibroblasts). Fresh unfixed tissue samples were placed in molds and frozen on dry ice in TISSUE-TEK O.C.T. embedding medium. Tissue samples were sectioned and fixed for 10 minutes in room temperature acetone. Tissues were stored below −70° C. until staining. Just prior to staining, the slides were fixed in 10% neutral buffered formalin.
Antibody preparation. Antibody was applied to tissue samples at two concentrations: 1 microgram/milliliter and 25 micrograms/milliliter.
Assays lacking primary antibody were used as an assay control. Mouse anti-fluorescein was used as secondary antibody. Goat anti-mouse IgG (GAMIgG)-peroxidase polymer was used as tertiary antibody. 3,3′-diaminobenzidinen (DAB) was used as substrate chromogen.
Immunohistochemistry analysis. An indirect immunoperoxidase procedure was performed. Acetone/formalin-fixed cryosections were rinsed twice in phosphate buffered saline (PBS [0.3M NaCl, pH 7.2]). Endogenous peroxidase was blocked by incubating the slides with peroxidase solution of Dako EnVision Kit for 5 minutes followed by two rinses in phosphate buffered saline. Slides were then treated with a protein block (phosphate buffered saline, 0.5% casein, 5% human gamma globulins, and 1 mg/ml heat aggregated HuIgG (prepared by heating a 5 mg/ml solution to 63° C. for 20 minutes and then cooling to room temperature)) designed to reduce nonspecific binding for 20 minutes. Following the protein block, primary antibody (anti-FR-α antibody, negative control antibody (HuIgG1 or MsIgG1), or none) was applied at room temperature for one hour. Unconjugated secondary antibody (mouse anti-fluorescein) was applied for 30 minutes. Slides were twice rinsed with PBS, treated with peroxidase-labeled goat anti-mouse IgG polymer (Dako EnVision kit) for 30 minutes, rinsed twice with PBS, and treated with substrate-chromogen (DAB; Dako EnVision) for 8 minutes. Slides were rinsed in water, counterstained with hematoxylin, dehydrated, and coverslipped.

IHC reactivity with ovarian carcinoma (stromal fibroblasts), negative control: did not react
IHC staining of human ovarian carcinoma cells (HT162), positive control (1 and 25 micrograms/milliliter): specifically and intensely stained
Expression by IHC (Tumor tissue origin: Brain): +++
% positive samples of total tested (Tumor tissue origin: Brain, n=5): 80%
Expression by IHC (Tumor tissue origin: Breast): ++++
% positive samples of total tested (Tumor tissue origin: Breast, n=53): 21%
Expression by IHC (Tumor tissue origin: Colorectal): +++
% positive samples of total tested (Tumor tissue origin: Colorectal, n=27): 22%
Expression by IHC (Tumor tissue origin: Endometrial): +++
% positive samples of total tested (Tumor tissue origin: Endometrial, n=11): 91%
Expression by IHC (Tumor tissue origin: Lung): +++
% positive samples of total tested (Tumor tissue origin: Lung, n=18): 33%
Expression by IHC (Tumor tissue origin: Melanoma): −
% positive samples of total tested (Tumor tissue origin: Melanoma, n=8): 0%
Expression by IHC (Tumor tissue origin: Normal adult): −
% positive samples of total tested (Tumor tissue origin: Normal adult, n=62): 0%
Expression by IHC (Tumor tissue origin: Ovarian carcinoma cells): +++++
% positive samples of total tested (Tumor tissue origin: Ovarian carcinoma cells, n=136): 91%
Expression by IHC (Tumor tissue origin: Renal): ++++
% positive samples of total tested (Tumor tissue origin: Renal, n=18): 50%
Expression by IHC (Tumor tissue origin: lymphoma): −
% positive samples of total tested (Tumor tissue origin: lymphoma, n=32): 0%
B1: anti-FR-α antibody: humanized anti-FR-α antibody, heavy chain SEQ ID NO:5 and light chain SEQ ID NO:2, expressed in CHO-K1 cells (antibody)
heavy: EVQLVESGGGVVQPGRSLRLSCSASGFTFSGYGLSWVRQAPGKGLEWVAMISSGGSYTYYADSVKGRFAISRDNAKNTLFLQMDSLRPEDTGVYFCARHGDDPAWFAYWGQGTPVTVSSASTKGPSVFPLAPSSKSTSGGTAALGCLVKDYFPEPVTVSWNSGALTSGVHTFPAVLQSSGLYSLSSVVTVPSSSLGTQTYICNVNHKPSNTKVDKKV[human IgG1 Fc not written out]
light: DIQLTQSPSSLSASVGDRVTITCSVSSSISSNNLHWYQQKPGKAPKPWIYGTSNLASGVPSRFSGSGSGTDYTFTISSLQPEDIATYYCQQWSSYPYMYTFGQGTKVEIKRTVAAPSVFIFPPSDEQLKSGTASVVCLLNNFYPREAKVQWKVDNALQSGNSQESVTEQDSKDSTYSLSSTLTLSKADYEKHKVYACEVTHQGLSSPVTKSFNRGEC
IHC specific staining in neoplastic human tissues: specific staining was observed in ovarian carcinoma tissue, endometrial carcinoma tissue, and renal carcinoma tissue
IHC specific staining in normal human tissues (both antibody concentrations (1 and 25 micrograms/milliliter)): specific staining was observed in tubular epithelium (kidney), bronchiolar epithelium (lung); pneumocytes (lung); epithelium of fallopian tube; and duct and ductile epithelium of the pancreas
